For 2 compounds, Ki results are on record in ChEMBL document CHEMBL1123812, “Pyrroloisoquinoline antidepressants. 2. In-depth exploration of structure-activity relationships” (J Med Chem, 1987).

Sequences of proteins named here, by UniProt entry; tags and fusion partners are left off. A change or cut given only in a name is not applied to a line headed by its entry.
UniProt P30994: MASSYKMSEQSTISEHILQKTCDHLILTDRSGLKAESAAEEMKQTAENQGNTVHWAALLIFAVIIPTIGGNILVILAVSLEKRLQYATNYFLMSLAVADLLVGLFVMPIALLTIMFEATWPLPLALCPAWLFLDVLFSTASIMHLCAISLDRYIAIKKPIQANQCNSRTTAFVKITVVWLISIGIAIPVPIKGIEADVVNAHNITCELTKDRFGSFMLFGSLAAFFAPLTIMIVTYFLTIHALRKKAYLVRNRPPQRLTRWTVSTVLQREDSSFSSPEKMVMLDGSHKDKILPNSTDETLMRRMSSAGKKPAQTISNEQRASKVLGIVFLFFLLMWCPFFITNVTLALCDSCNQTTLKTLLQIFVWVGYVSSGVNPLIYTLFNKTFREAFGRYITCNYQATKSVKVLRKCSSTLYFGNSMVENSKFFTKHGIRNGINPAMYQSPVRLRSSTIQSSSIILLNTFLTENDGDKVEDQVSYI
UniProt P08909: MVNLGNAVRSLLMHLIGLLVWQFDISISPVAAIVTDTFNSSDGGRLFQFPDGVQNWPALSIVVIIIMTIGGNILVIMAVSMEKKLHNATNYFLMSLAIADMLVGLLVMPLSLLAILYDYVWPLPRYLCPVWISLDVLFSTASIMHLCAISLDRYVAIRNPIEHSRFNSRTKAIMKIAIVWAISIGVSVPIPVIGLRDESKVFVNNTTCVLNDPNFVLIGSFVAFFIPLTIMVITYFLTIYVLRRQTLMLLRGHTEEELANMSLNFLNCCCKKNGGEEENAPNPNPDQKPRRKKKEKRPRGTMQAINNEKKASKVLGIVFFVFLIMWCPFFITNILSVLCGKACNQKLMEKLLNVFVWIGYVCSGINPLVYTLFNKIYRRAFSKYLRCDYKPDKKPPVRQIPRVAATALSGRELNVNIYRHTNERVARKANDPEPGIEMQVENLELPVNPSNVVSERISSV
UniProt P14842: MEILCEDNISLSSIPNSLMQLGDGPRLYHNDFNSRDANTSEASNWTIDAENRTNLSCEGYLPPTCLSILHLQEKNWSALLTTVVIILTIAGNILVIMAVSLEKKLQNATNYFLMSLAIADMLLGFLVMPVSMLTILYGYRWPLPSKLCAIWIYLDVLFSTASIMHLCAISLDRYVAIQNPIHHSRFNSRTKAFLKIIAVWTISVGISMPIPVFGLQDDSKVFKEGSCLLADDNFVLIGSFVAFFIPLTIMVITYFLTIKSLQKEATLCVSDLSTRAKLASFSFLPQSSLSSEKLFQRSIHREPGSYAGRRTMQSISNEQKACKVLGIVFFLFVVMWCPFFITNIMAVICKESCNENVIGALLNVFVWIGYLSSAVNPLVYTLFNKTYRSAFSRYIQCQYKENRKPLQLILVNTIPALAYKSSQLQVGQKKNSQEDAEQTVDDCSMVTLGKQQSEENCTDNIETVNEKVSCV
UniProt P61169, whole entry: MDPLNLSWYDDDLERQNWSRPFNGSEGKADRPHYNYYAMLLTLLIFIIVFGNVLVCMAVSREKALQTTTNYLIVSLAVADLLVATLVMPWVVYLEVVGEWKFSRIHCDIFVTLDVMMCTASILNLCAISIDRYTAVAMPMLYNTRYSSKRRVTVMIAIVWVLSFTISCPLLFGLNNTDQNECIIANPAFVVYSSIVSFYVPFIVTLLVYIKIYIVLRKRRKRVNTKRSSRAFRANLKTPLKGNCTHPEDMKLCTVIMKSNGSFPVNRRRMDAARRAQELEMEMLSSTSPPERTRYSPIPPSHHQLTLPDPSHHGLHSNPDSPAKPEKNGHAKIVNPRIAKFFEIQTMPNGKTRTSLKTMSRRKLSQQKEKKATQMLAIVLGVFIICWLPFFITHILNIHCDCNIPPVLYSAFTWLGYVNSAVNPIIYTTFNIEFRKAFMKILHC

For assay [1], the target named is Serotonin 2 (5-HT2) receptor (Rattus norvegicus, UniProt P30994+P08909+P14842). Nature of the assay: Binding affinity towards 5-hydroxytryptamine 2 receptor. Format: protein assay.
Assay [2] has as its target D(2) dopamine receptor (Rattus norvegicus, UniProt P61169). In words: Binding affinity towards Dopamine receptor D2 at 1.0 uM concentration.

In the case of `CN(C)CCCN1c2ccccc2CCc2ccccc21` [IMIPRAMINE], the Ki in assay [1] turned out to be 23 nM.
As to `CN1CCN2c3ccccc3Cc3ccccc3C2C1` (configuration not stated) [MIANSERIN], the inhibition constant (Ki) in assay [2] is 828 nM.
